Assay outcomes from PubChem BioAssay.
uPA surface inh: cell surface uPA generation inhibition; 0.31% of 330,000 active; Potency, µM (top dose mostly 38.3 µM), most hits filed as inhibitors; cell surface uPA generation assay, qHTS; active = well fitted inhibition curve with a large enough effect; inconclusive = small, poorly fitted or top-dose-only effect; inactive = no such curve, though single readings can be large or run the other way; tested in mouse RAW 264.7 cells; note: nearly all actives have a fitted effect of over 55% in size
miR-21 FLuc: raises the signal of a miR-21 reporter; HeLa miR-21 FLuc reporter, luciferase, 48 h; Potency, µM (top dose mostly 38.3 µM); AID 2288; 340,000 tested, under 10 active; active = well fitted rising curve with a large enough effect; inconclusive = small, poorly fitted or top-dose-only effect; inactive = no such curve, though single readings can be large or run the other way;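 note: miR-21 action dims this reporter so a rising signal means less miR-21 action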
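HeLa cells endogenously expressing miR-21, stably carrying CMV-driven firefly luciferase with a downstream miR-21 binding site, 2000 cells/well. Titrations up to approximately 40 uM, 48 hours; luciferase luminescence read.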
TDP1 block: TDP1 (human) enzyme inhibition. Q9NUW8. recombinant TDP1, AlphaScreen DNA substrate cleavage. Potency, µM (titrated, usually from 130 µM), actives largely listed as inhibitors. 0.28% of 350,000 active. AID 485290; note: nearly all actives have a fitted effect of over 40% in size
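Recombinant E. coli-expressed Tdp1 (1 nM) preincubated with compound 15 min at RT, then 5'-biotin/3'-phosphotyrosine-FITC DNA substrate (15 nM) added for 5 min. AlphaScreen beads (10 ug/ml) added, 10 min RT; tyrosine-FITC cleavage read as signal loss.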
TDP1 cell CPT: DT40-hTDP1 cell growth loss with CPT. chicken DT40 Tdp1-/-;hTDP1 cells + 20 nM CPT, ATP luminescence, 48 h. Potency, µM (titrated, usually from 46.2 µM), most hits filed as inhibitors. 12% of 420,000 active; note: nearly all actives have a fitted effect of over 55% in size
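Chicken DT40 Tdp1-/- cells stably complemented with human TDP1 were seeded at 400 cells/well in medium containing 20 nM camptothecin, exposed to pin-transferred compounds, and grown at 37 °C for at least 48 hr. Viability was read as ATP luminescence.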
TDP1 cell noCPT: qHTS for Inhibitors of human tyrosyl-DNA phosphodiesterase 1 (TDP1): qHTS in cells in absence of CPT. DT40 Tdp1-/- hTDP1 cells, no CPT, ATP luminescence, 48 h. Potency, µM (top dose mostly 46.2 µM), actives largely listed as inhibitors. 15% of 420,000 active. AID 686978, 2013; note: nearly all actives have a fitted effect of over 55% in size
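Camptothecin absent (DMSO only). Human TDP1-complemented DT40 knockout cells, 400 cells/well, 37 °C for minimum 48 hr; ATP measured via CellTiter-Glo, 30 min dark incubation, luminescence.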
Large screens that a line does not name were inactive. Shown are actives, neighbours in structure and some others; about 16% of the full set was active somewhere. Unless noted, calls come from the whole dose curve; as a rule, active = well fitted curve in the direction sought with a large enough effect; inconclusive = small, poorly fitted or top-dose-only effect, or another doubt; inactive = no such curve, though single readings can be large; an effect the other way counts as inactive or inconclusive.

Nc1ncnc(Oc2ccccc2F)c1[N+](=O)[O-]	none
CNC(=O)CN1C(=O)COc2ccc(S(=O)(=O)N3CCCCCC3)cc21	none
CC1CCC(N2CCN(c3ncccn3)CC2)CC1 (configuration not stated)	none (no result: uPA surface inh)
O=C(NNc1ncnc2c1cnn2-c1ccccc1)c1cccc(Cl)c1	TDP1 cell CPT inconclusive, TDP1 cell noCPT inconclusive (no result: uPA surface inh)
CC(=O)c1cccc(Nc2nc(-c3cccc([N+](=O)[O-])c3)cs2)c1	TDP1 cell CPT inconclusive, TDP1 cell noCPT inconclusive
O=[N+]([O-])c1ccc(-c2csc(Nc3ccccc3)n2)cc1	TDP1 cell CPT inconclusive, TDP1 cell noCPT 13µM (no result: uPA surface inh, miR-21 FLuc, TDP1 block)
O=C(Nc1ccc(F)cc1F)c1csc(-c2ccncc2)n1	none
O=C(Nc1cccc(-c2csc(Nc3cccc(C(F)(F)F)c3)n2)c1)c1cc([N+](=O)[O-])cc(C(F)(F)F)c1	uPA surface inh inconclusive, TDP1 cell CPT 7.3µM, TDP1 cell noCPT 5.8µM
Cc1ccc(C(=O)Nc2cccc(C(F)(F)F)c2)cc1NC(=O)c1csc(-c2ccncc2)n1	TDP1 cell CPT 6.5µM, TDP1 cell noCPT 4.1µM
NC(=O)Cc1nc(-c2ccc([N+](=O)[O-])cc2)cs1	TDP1 cell CPT 10µM, TDP1 cell noCPT inconclusive
Cc1ccc(S(=O)(=O)NC(=O)c2ccccc2C)cc1	none
Nc1nc2ccc(C(=O)NCCOC(=O)C3CCCCC3)cc2s1	none
O=[N+]([O-])c1cccc(C2Nc3ccccc3CO2)c1 (configuration not stated)	TDP1 cell noCPT inconclusive (no result: uPA surface inh, miR-21 FLuc, TDP1 block)
O=C(Nc1ccc(-c2csc(-c3ccccc3)n2)cc1)c1ccccc1	TDP1 cell CPT inconclusive, TDP1 cell noCPT inconclusive
Cc1ccc(-c2csc(NC(=O)c3cccc([N+](=O)[O-])c3)n2)cc1	none
O=C(Nc1ccc(-c2csc(Nc3ccccc3)n2)cc1)c1cc([N+](=O)[O-])cc(C(F)(F)F)c1	TDP1 cell CPT inconclusive, TDP1 cell noCPT 18µM
O=C(Nc1ccc(-c2csc(Nc3ccccc3)n2)cc1)c1cccc(C(F)(F)F)c1	TDP1 cell CPT 2.9µM, TDP1 cell noCPT 4.1µM
Cc1c(C(=O)C(=O)NCCC2=CCCCC2)c2ccccc2n1C	none
NNC(=O)Cn1nnc(-c2ccc(C(F)(F)F)cc2)n1	none (no result: TDP1 block)
OC(c1cccc(Cl)c1)c1nc(-c2ccccc2)cs1 (configuration not stated)	TDP1 cell CPT inconclusive (no result: uPA surface inh, miR-21 FLuc, TDP1 block)
O=C(O)c1cccc(-c2csc(C(O)c3ccc(F)cc3)n2)c1 (configuration not stated)	none (no result: uPA surface inh, miR-21 FLuc, TDP1 block)
OC(c1ccc(F)cc1)c1nc(-c2cnc3ccccc3c2)cs1 (configuration not stated)	TDP1 cell CPT 18µM, TDP1 cell noCPT inconclusive (no result: uPA surface inh, miR-21 FLuc, TDP1 block)
OC(c1cccc(Cl)c1)c1nc(-c2cnc3ccccc3c2)cs1 (configuration not stated)	TDP1 cell CPT 26µM, TDP1 cell noCPT 13µM (no result: uPA surface inh, miR-21 FLuc, TDP1 block)
COc1ccc(C(O)c2nc(-c3cnc4ccccc4c3)cs2)cc1 (configuration not stated)	TDP1 cell CPT inconclusive, TDP1 cell noCPT 15µM (no result: uPA surface inh, miR-21 FLuc, TDP1 block)
COc1ccc(C(O)c2nc(-c3cccc(C(C)C)c3)cs2)cc1 (configuration not stated)	TDP1 cell noCPT inconclusive (no result: uPA surface inh, miR-21 FLuc, TDP1 block)
CCOC(=O)c1ccc(OCCN2C[C@H](O)[C@@H](O)[C@H](O)[C@H]2CO)cc1	TDP1 cell noCPT inconclusive (no result: uPA surface inh, miR-21 FLuc, TDP1 block)
CCN(C(=O)CSc1nc2n[nH]c(C)c2c(=N)n1-c1ccc(Cl)c(C)c1)c1cccc(C)c1	uPA surface inh inconclusive, TDP1 cell CPT 18µM, TDP1 cell noCPT 21µM
CCCCN(CC)C(=O)CSc1nc2n[nH]c(C)c2c(=N)n1-c1ccc(CC)cc1	TDP1 cell CPT 10µM, TDP1 cell noCPT 5.2µM (no result: uPA surface inh)
CCCCN(CC)C(=O)CSc1nc2n[nH]c(C)c2c(=N)n1-c1cccc(OC)c1	TDP1 cell CPT 23µM, TDP1 cell noCPT 9.2µM (no result: uPA surface inh)
CCCN(CCC)C(=O)CSc1nc2n[nH]c(C)c2c(=N)n1-c1ccc(OC)cc1	TDP1 cell CPT 13µM, TDP1 cell noCPT 10µM
COCC(=O)N1CCC[C@@]2(CCN(c3ccccc3)C2)C1	none (no result: uPA surface inh, miR-21 FLuc, TDP1 block)
CCCC(=O)N(C)c1nnc(-c2ccc(OC)cc2)s1	none
O=C(CSc1nnc(-c2ccco2)o1)Nc1c(F)cccc1F	none (no result: miR-21 FLuc)
CCN(CC)C(=O)CSc1nnc(COc2cccc(C)c2)n1C	none (no result: uPA surface inh, TDP1 cell CPT, TDP1 cell noCPT)
CCCCN(CC)C(=O)CSc1nc2n[nH]c(C)c2c(=N)n1-c1cccc(C)c1	uPA surface inh inconclusive, TDP1 cell CPT 7.3µM, TDP1 cell noCPT 21µM
O=C(CNC(=O)Cc1ccccc1)NCC(=O)OCC(=O)c1cccc2ccccc12	TDP1 cell CPT inconclusive, TDP1 cell noCPT 18µM
O=C(CNC(=O)c1ccco1)OCC(=O)c1cccc2ccccc12	TDP1 cell CPT 16µM, TDP1 cell noCPT inconclusive
O=C(CNC(=O)c1ccccc1)NCC(=O)OCC(=O)c1cccc2ccccc12	none (no result: uPA surface inh, miR-21 FLuc)
N/C(=N/O)c1nc(N2CCCC2)nc(N2CCCC2)n1	none (no result: miR-21 FLuc)
Cc1cccc(C)c1NC(=O)Nc1csc2c1CCCC2	none (no result: uPA surface inh)
CCc1cccc(NC(=O)Nc2csc3c2CCCC3)c1	TDP1 cell CPT 21µM, TDP1 cell noCPT 23µM (no result: uPA surface inh)
Cc1cccc(C)c1NC(=O)c1csc2c1CCCC2	TDP1 cell CPT 3.7µM, TDP1 cell noCPT 5.2µM (no result: uPA surface inh)
COc1cccc(NC(=O)c2csc3c2CCCCC3)c1	TDP1 cell CPT 21µM, TDP1 cell noCPT 16µM (no result: uPA surface inh)
COc1ccc(CNC(=O)C(C)NC(=O)c2cc3ccccc3o2)cc1 (configuration not stated)	none
Cc1cccn2c(=O)c(C(=O)NCCc3ccc(S(N)(=O)=O)cc3)c(O)nc12	none (no result: uPA surface inh)
Cc1cccn2c(=O)c(C(=O)NC(C)c3ccccc3)c(O)nc12 (configuration not stated)	miR-21 FLuc inconclusive, TDP1 cell CPT 18µM, TDP1 cell noCPT inconclusive (no result: uPA surface inh)
O=C(NCc1ccc(F)cc1)c1c(O)nc2ccccn2c1=O	TDP1 cell CPT inconclusive, TDP1 cell noCPT 21µM (no result: uPA surface inh)
COc1ccc(CCNC(=O)c2c(O)nc3c(C)cccn3c2=O)cc1	TDP1 cell CPT 16µM, TDP1 cell noCPT inconclusive (no result: uPA surface inh)
COc1ccc(CNC(=O)c2c(O)nc3c(C)cccn3c2=O)cc1	TDP1 cell CPT inconclusive, TDP1 cell noCPT 12µM (no result: uPA surface inh)
c1ccc(-c2nc3nonc3nc2-c2ccccc2)cc1	TDP1 cell CPT 21µM, TDP1 cell noCPT 13µM
COC(=O)c1ccc(CSCc2ccc(C#N)cc2)cc1	none (no result: uPA surface inh, TDP1 block, TDP1 cell CPT, TDP1 cell noCPT)
Cc1cc(=S)n(-c2ccccc2)n1C	none
CCN1CCN(C2=CC3=CC(=C(C#N)C#N)CCC3CC2)CC1 (configuration not stated)	TDP1 cell CPT inconclusive, TDP1 cell noCPT inconclusive
Cc1nc(N2CCC(C)CC2)c2c(C)c(C(=O)Nc3ccc4c(c3)OCCO4)sc2n1	uPA surface inh inconclusive, TDP1 cell CPT inconclusive, TDP1 cell noCPT inconclusive
